GSIS activator: GLuc luminescence reporter in INS-1E cells, primary screen for activators of glucose-dependent secretion of insulin; activation, % at 16.6 µM; AID 743287, 2014; INS-1E GLuc reporter insulin secretion, 2-3 h; 370,000 tested, 0.61% active;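 active = lowest replicate activation of at least 40%, so every replicate reaches that level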;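 note: 0% = median of neutral control wells and 100% = median of IBMX positive control wells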
ERp5 inh: inhibitors of ERp5-driven insulin aggregation, primary screen, biochemical, turbidity, absorbance 650 nm, single point. 90 min. Protein disulfide-isomerase A6 (Homo sapiens), Q15084. inhibition, % at 9.99 µM. 350,000 tested, 0.05% active;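 active = mean replicate inhibition above about 25%, with every replicate also reaching it, limit read from the data, passing the limit was not always enough; inconclusive = only one of those two criteria met; inactive = neither criterion met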
Rev-erbA mod: modulators of Rev-erb alpha DNA binding, primary screen, biochemical, FITC-DNA, fluorescence polarization, uHTS. Nuclear receptor subfamily 1 group D member 1 (Homo sapiens), P20393. Rev-erbα–FITC-DNA binding, 90 min. activity, % at 10 µM. 370,000 tested, 0.79% active;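 active = activity above about 14%, limit read from the data; passing the limit was not always enough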;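 note: 0% = DMSO wells with 35 nM protein and 100% = DMSO wells with 750 nM protein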
UUG fidelity: alters start codon recognition fidelity in yeast; S. cerevisiae UUG-firefly luciferase reporter, luminescence/redox ratio; activity score, % at 18.7 µM; hit rate 0.13% among 350,000;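 active = replicate mean at a twofold rise or more, about +100% in these data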;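 also: firefly luciferase made from a UUG start codon reports start codon fidelity; reporter light over untreated wells divided by growth signal over untreated wells; some hits fall short of that in this replicate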
SMARCA2 act: SMARCA2 (BRM) function activators, primary screen, cell-based, luminescence, high throughput; activation, % at 9.1 µM; MG213 cells, MMTV-luciferase reporter, dexamethasone, overnight; 370,000 tested, 1% active; AID 652017, 2013; in the data active = activation above about 7.8%;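 note: 0% = vehicle wells and 100% = reference activator wells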
PDI inh: inhibitors of human PDI, primary screen, biochemical, turbidity, single point, plate reader; Protein disulfide-isomerase (Homo sapiens), P07237; PDI insulin aggregation turbidity, A650, 90 min; inhibition, % at 10 µM; 350,000 tested, 0.052% active; AID 588391, 2011;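 active = mean inhibition across replicates of 30% or more, whatever share of single replicates reach that level; inconclusive = mean inhibition below 30% while every single replicate reaches 30%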
NR1D1 mod conf: modulators of Rev-erb alpha DNA binding, confirmation, biochemical, FITC-DNA, fluorescence polarization, single point; activation, % at 25 µM; 3,000 tested, 61% active; shares compounds with Rev-erbA mod; AID 1259319, 2017; 90 min;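 active = activation at or above a set limit, or at least 3 SD above the negative control mean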;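 note: 0% = 35 nM protein with DMSO and 100% = 750 nM protein high control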
RORg counter: modulation of RORgamma DNA binding, dose response, counter-screen for Rev-erb alpha modulator project, biochemical, fluorescence polarization, FITC-DNA. IC50, µM. 910 tested, 8% active. shares compounds with Rev-erbA mod. purified RORgamma protein-FITC-DNA binding;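 active = Compounds whose fitted half-maximal concentration for disrupting protein-DNA binding is below 10 micromolar; the record names Rev-erb in its text, so the target is in doubt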
Active calls of the source: *; ? = inconclusive; nt = no result. Shown are actives, neighbours in structure and some others; about 2.1% of the full set was active somewhere.

SMILES | GSIS activator | ERp5 inh | Rev-erbA mod | UUG fidelity | SMARCA2 act | PDI inh | NR1D1 mod conf | others
CO[C@@H]1CN(C)C(=O)c2ccc(NC(C)=O)cc2OC[C@@H](C)N(C(=O)Cc2cccnc2)C[C@H]1C | 2 | -2 | nt | 17 | nt | nt | nt
CCCN1C[C@@H](C)[C@H](OC)CN(C)C(=O)c2ccc(NC(=O)c3cccc(OC)c3)cc2OC[C@@H]1C | 7 | nt | nt | nt | nt | nt | nt
CC(C)Cn1c(N)c(C(=O)COC(=O)c2cc(C(F)(F)F)nc3c(C(F)(F)F)cccc23)c(=O)n(C)c1=O | 1 | -6 | 46* | nt | 1 | nt | 21*
COc1cc2c(cc1OC)C1(Nc3c-2c(C)nn3-c2ccccc2)C(=O)Nc2ccccc21 (stereo not drawn) | -7 | 1 | 18* | -2 | 1 | 3 | 3
CCC(=O)N1[C@H](CO)[C@@H](c2ccccc2)C12CN(C(=O)CN1CCOCC1)C2 | 2 | nt | nt | nt | nt | nt | nt
CCOC(=O)c1sc2nc(C)[nH]c(=S)c2c1C | -6 | 2 | 62* | nt | -1 | 7 | 19*
CCOC(=O)c1sc2nc(C)n(N)c(=O)c2c1C | 19 | ? | -6 | nt | 2 | -6 | nt
COc1cc(Cl)cc(/C=C/c2ccc3ccccc3n2)c1OC(C)=O | -15 | nt | 3 | -7 | 3 | 4 | nt
COc1ccc(C=Cc2ccc3ccccc3n2)c(OC)c1 | -33 | -3 | 20* | nt | -6 | -6 | 9
Cc1c(C(C)(C)C)s/c(=N/S(=O)(=O)c2ccccc2)n1C | nt | 1 | 6 | -5 | -3 | 7 | nt
Cc1c(C(C)(C)C)sc(=NC(=O)c2ccccc2O)n1C | 0 | 7 | 21* | -19 | 6 | -1 | -10
COc1cccc(COC(=O)c2cc(S(=O)(=O)N3CCCCC3)ccc2N2CCOCC2)c1OC | 31 | 2 | 20* | -13 | 1 | 8 | 0
COc1ccccc1C(=O)COC(=O)c1cc(S(=O)(=O)N2CCCCC2)ccc1N1CCOCC1 | -19 | 4 | -2 | nt | -4 | -3 | nt
COc1ccc(C(=O)COC(=O)c2cc(S(=O)(=O)N3CCCCC3)ccc2N2CCOCC2)c(OC)c1 | -4 | -5 | 18* | 4 | -2 | 1 | 12
O=C(c1cnccn1)N1CC(=O)N2[C@H](CO)[C@@H](c3ccc(C#CC4CCCC4)cc3)[C@H]2C1 | 20 | 1 | nt | nt | nt | nt | nt
CCN(CC)c1ccc(N=Nc2ncn[nH]2)cc1 | -24 | -3 | 26* | nt | 4 | 2 | 26*
CCN(CC)c1ccc(N=Nc2nn(C)c(C)c2[N+](=O)[O-])cc1 | nt | -2 | 5 | -24 | 4 | -3 | nt
COc1ccc(-c2cc(C(F)(F)F)n3nc(C(=O)Nc4cc(C)on4)cc3n2)cc1OC | nt | nt | 34* | -15 | 0 | -2 | 26*
COc1ccc(-c2cc(C(=O)Nc3ccc(Br)cc3)no2)cc1 | 5 | -1 | 35* | 0 | -2 | -6 | -1
COc1ccc(OC)c(-c2cc(C(=O)Nc3cc(C)n(Cc4ccc(Cl)cc4)n3)no2)c1 | 4 | nt | 16* | 2 | 1 | -5 | 5
COc1cccc(-c2cc(C(=O)Nc3cc(C)n(Cc4ccc(Cl)cc4)n3)no2)c1 | -5 | 4 | -5 | -10 | -5 | 11 | nt
O=C(Nc1cccc(O)c1)c1cc2nc(-c3ccccc3)cc(-c3ccccc3)n2n1 | 38 | nt | 2 | nt | -2 | -1 | nt
COc1ccc(NC(=O)c2cc3nc(-c4ccccc4)cc(-c4ccccc4)n3n2)c(OC)c1 | nt | nt | 21* | -14 | 3 | -2 | 14
Cc1ccc(-c2cc(C(F)(F)F)n3nc(C(=O)Nc4ccon4)cc3n2)cc1C | 29 | -8 | -3 | -4 | -3 | 1 | nt
C[C@@H]1CN([C@H](C)CO)C(=O)c2cc(NC(=O)CCC(F)(F)F)ccc2O[C@@H](C)CCCCO[C@H]1CN(C)C(=O)C1CCCCC1 | -12 | 0 | nt | 26 | nt | nt | nt
Cc1noc(C)c1NC(=O)N(C)C[C@H]1Oc2ccc(NC(=O)CCC(F)(F)F)cc2C(=O)N([C@@H](C)CO)C[C@H]1C | 9 | -2 | nt | nt | nt | nt | nt
COCC(=O)N1C[C@H](C)[C@@H](OC)CN(C)C(=O)c2cc(NC(=O)Nc3cccc(F)c3)ccc2OC[C@@H]1C | -1 | nt | nt | nt | nt | nt | nt
COc1ccc(S(=O)(=O)Nc2ccc3c(c2)C(=O)N([C@H](C)CO)C[C@H](C)[C@H](CN(C)C(=O)NC(C)C)OCCCC[C@H](C)O3)cc1 | -17 | 0 | nt | -2 | nt | nt | nt
COc1ccccc1C(=O)Nc1ccc2c(c1)C(=O)N(C)[C@H]1CC[C@H](CC(=O)NCCc3ccncc3)O[C@H]1CO2 | -10 | 0 | nt | nt | nt | nt | nt
COc1ccc(-c2cc(C(=O)Nc3cc(C)on3)no2)cc1OC | -8 | -3 | 36* | nt | -2 | -1 | 29*

5 records picked at random from the list so far, as already listed:
SMILES | GSIS activator | ERp5 inh | Rev-erbA mod | UUG fidelity | SMARCA2 act | PDI inh | NR1D1 mod conf | others
COc1ccc(NC(=O)c2cc3nc(-c4ccccc4)cc(-c4ccccc4)n3n2)c(OC)c1 | nt | nt | 21* | -14 | 3 | -2 | 14
COc1ccc(-c2cc(C(=O)Nc3ccc(Br)cc3)no2)cc1 | 5 | -1 | 35* | 0 | -2 | -6 | -1
CCN(CC)c1ccc(N=Nc2ncn[nH]2)cc1 | -24 | -3 | 26* | nt | 4 | 2 | 26*
COc1ccc(S(=O)(=O)Nc2ccc3c(c2)C(=O)N([C@H](C)CO)C[C@H](C)[C@H](CN(C)C(=O)NC(C)C)OCCCC[C@H](C)O3)cc1 | -17 | 0 | nt | -2 | nt | nt | nt
CCN(CC)c1ccc(N=Nc2nn(C)c(C)c2[N+](=O)[O-])cc1 | nt | -2 | 5 | -24 | 4 | -3 | nt

(more compounds)
SMILES | GSIS activator | ERp5 inh | Rev-erbA mod | UUG fidelity | SMARCA2 act | PDI inh | NR1D1 mod conf | others
Cn1nc(C(=O)Nc2ccc(Br)cc2)cc1C(=O)Nc1ccc(Br)cc1 | 6 | 2 | 13* | 3 | 0 | 2 | 6
Cc1cc(NC(=O)c2cc(-c3ccc(O)cc3)on2)no1 | 18 | -5 | -1 | -12 | 1 | 12 | nt
Cc1cc(NC(=O)c2cccc(C(=O)Nc3cc(C)on3)n2)no1 | nt | nt | 22* | nt | -4 | 4 | 17*
CO[C@@H]1CN(C)C(=O)c2ccc(NC(C)=O)cc2OC[C@@H](C)N(Cc2ccncc2)C[C@H]1C | 1 | nt | nt | nt | nt | nt | nt
COC(=O)C[C@@H]1CC[C@H]2[C@H](COc3ccc(NC(=O)Nc4ccccc4C)cc3C(=O)N2C)O1 | -5 | 9 | nt | 0 | nt | nt | nt
CCOC(=O)c1sc2nc(N3CCCC3)c3c(c2c1N)CC(C)(C)OC3 | nt | nt | -2 | -4 | 1 | 1 | nt
CCOC(=O)c1sc2nc(C(C)C)c3c(c2c1N)CC(C)(C)OC3 | nt | nt | 23* | 14 | 3 | 14 | 2
COc1ccc2c3c([nH]c2c1)[C@H](CO)N(C(=O)c1ccccn1)CC31CCN(C(=O)C2CCCC2)CC1 | -3 | 3 | nt | nt | nt | nt | nt
O=C(O)c1ccccc1C(c1ccccc1)c1ccccc1O (stereo not drawn) | 0 | -4 | 54* | nt | -2 | 5 | 45* | RORg counter=>40
O=C(O)c1ccccc1C(=O)O | 5 | -4 | -4 | -9 | -2 | nt | nt

From PubChem
